pKd: −log10 of the molar value.
Target: H3Kc9me3 mononucleosome (601 positioning sequence) (Xenopus laevis)
Assay: fluorescence polarisation

pKd: 6.05
Substance: full-length recombinant ZMET2 (wild type) (from UniProt Q9AXT8 1-912) (enzyme)

— publication PMC6407616 (Molecular cell, 2018)
